The chains behind the UniProt entries cited, without tags or fusion partners. Residues count along the entry.
UniProt P06276, 29-602, species assumed: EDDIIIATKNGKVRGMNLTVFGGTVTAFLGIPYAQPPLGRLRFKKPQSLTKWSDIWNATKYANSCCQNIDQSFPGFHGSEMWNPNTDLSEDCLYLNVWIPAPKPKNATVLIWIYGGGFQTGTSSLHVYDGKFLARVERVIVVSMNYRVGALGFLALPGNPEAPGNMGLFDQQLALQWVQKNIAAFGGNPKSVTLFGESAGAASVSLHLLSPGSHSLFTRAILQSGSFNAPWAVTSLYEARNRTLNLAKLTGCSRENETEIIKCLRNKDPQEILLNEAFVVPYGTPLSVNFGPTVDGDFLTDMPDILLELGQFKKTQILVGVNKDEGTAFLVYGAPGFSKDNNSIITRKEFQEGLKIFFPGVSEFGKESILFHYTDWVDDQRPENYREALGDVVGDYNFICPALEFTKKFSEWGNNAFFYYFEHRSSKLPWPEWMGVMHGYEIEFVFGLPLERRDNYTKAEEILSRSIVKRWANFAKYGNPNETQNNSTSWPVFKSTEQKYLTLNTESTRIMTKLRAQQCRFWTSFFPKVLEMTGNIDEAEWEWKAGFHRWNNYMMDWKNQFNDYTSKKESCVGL

According to patent US20260015372A1, “Organophosphorous Compounds and Uses Thereof” (priority 2022, published 2026):

Target: BCHE (Homo sapiens (Human), UniProt P06276)
Assay: biochemical
Description: The compounds referred to herein have BCHE inhibitory activity. To determine the inhibitory values, enzymes were incubated for 2 hours in the presence of varying concentrations of compound prior to activity measurements. Activity is then measured colorimetrically upon addition of substrate and Ellman's reagent.

| SMILES | Ki | IC50 |
| --- | --- | --- |
| CCCCOP(=O)(OCC)Oc1ccccc1 (racemic) [Compound 99, (±)-n-Butyl ethyl phenyl phosphate] | 10000 µM |  |
| C=P(OCCCC)(OCCCC)SCCCSP(=O)(OCCCC)OCCCC [Compound 69, O,O,O′,O′-tetrabutyl S,S′-(propane-1,3-diyl) Bis(phosphorothioate)] | 0.21 µM |  |
| C=P(OCCCC)(OCCCC)SCCCCCSP(=O)(OCCCC)OCCCC [Compound 71, O,O,O′,O′-tetrabutyl S,S′-(pentane-1,5-diyl) Bis(phosphorothioate)] | 0.24 µM |  |
| C=P(OCCCC)(OCCCC)SCCCCCCSP(=O)(OCCCC)OCCCC [Compound 72, O,O,O′,O′-tetrabutyl S,S′-(hexane-1,6-diyl) Bis(phosphorothioate)] | 0.25 µM |  |
| C=P(OCCCC)(OCCCC)SCCCCCCCSP(=O)(OCCCC)OCCCC [Compound 73, O,O,O′,O′-tetrabutyl S,S′-(heptane-1,7-diyl) Bis(phosphorothioate)] | 0.34 µM |  |
| CCCCOP(=O)(Cc1ccc(C)cc1)OCCCC [Compound 85, Di-n-butyl 4-methylbenzylphosphonate] |  | 80 µM |
| CCCCOP(=O)(Cc1ccccc1)OCCCC [Compound 91, Di-n-butyl benzylphosphonate] |  | 66 µM |
| CCCOP(=O)(OCCC)Oc1ccccc1 [Compound 95, Di-n-propyl phenyl phosphate] | 80 µM |  |
| CCCCOP(=O)(OCCCC)Oc1ccccc1 [Compound 96, Di-n-butyl phenyl phosphate] | 43 µM |  |
